Earlier results in patent US20100062043A1, “Methods, Systems and Devices for Administration of Chlorine Dioxide” (priority 2008, published 2010).

Settings: chlorite ion/chlorous acid equilibrium; background statement

chlorous acid
pKa: 1.8
